Experimental data as given in US20090156561A1, “Use of Cholinesterase Inhibitors In Smoking Cessation” (published 2009).

System: patient, habitual or occasional smoker, exposed to tobacco smoke
Assay: Aiding smoking cessation in patients with reversible cholinesterase inhibitors, alone or combined (Examples 2, 4, 5, Comparative Example)
Details: for aid in smoking cessation by a single reversible cholinesterase inhibitor: single agent, general statement, dose not given
[1] = Comparative Example, habitual smoker, 5 mg donepezil daily for one year

Structure (SMILES) | aid in smoking cessation by a single reversible cholinesterase inhibitor | effect on bowel movements [1] | smoking cessation outcome [1]
CCN(C)C(=O)Oc1cccc([C@H](C)N(C)C)c1 | does not appear to aid in smoking cessation programs |  | 
COc1cc2c(cc1OC)C(=O)C(CC1CCN(Cc3ccccc3)CC1)C2 (stereo not shown) | does not appear to aid in smoking cessation programs | moved their bowels more frequently | the effect was not strong enough to aid smoking cessation
